Test results: US5196094A, “Separation of 1,1,1-trichloroethane from the lower alcohols by extractive distillation” (priority 1991, dated 1993)

Key:
Type in all cases: physicochemical
[1] = Vapor-liquid equilibrium still, separation of 1,1,1-trichloroethane from t-butanol
[2] = Vapor-liquid equilibrium still, separation of 1,1,1-trichloroethane from n-propanol
[3] = Vapor-liquid equilibrium still, separation of 1,1,1-trichloroethane from 2-butanol
[4] = Vapor-liquid equilibrium still, separation of 1,1,1-trichloroethane from methanol
[5] = 1,1,1-trichloroethane from 2-butanol, vapor-liquid equilibrium still

Substance	Relative Volatility [1]	Relative Volatility [2]	Relative Volatility [3, 5]	Relative Volatility [4]	Relative Volatility [3]
Dipropylene glycol methyl ether	1.5	2.5	2.3		
Dipropylene glycol methyl ether acetate		1.7		2.2 and 3.6	1.8
Tripropylene glycol methyl ether	1.4	2.2	2.3		

Several values for one entry are separate records, joined by “and”; a condition that tells them apart may be missing. Identical values can stand only once.
